# The entries are a selection whose mix differs from that of the whole data set. Records with an inconclusive call do not appear. Activity calls are given as the source filed them. Calls follow the shape of the dose curve; as a rule, active = well fitted inhibition curve with a large enough effect (not every such curve was filed as active); inconclusive = small, poorly fitted or top-dose-only effect, or another doubt; inactive = no such curve, though single readings can be large or run the other way.
# By UniProt entry, the sequences of proteins in these tests, tags left out. Where a name states a change or a piece, a line headed by the entry shows the natural chain unless it says otherwise.
# UniProt P00352: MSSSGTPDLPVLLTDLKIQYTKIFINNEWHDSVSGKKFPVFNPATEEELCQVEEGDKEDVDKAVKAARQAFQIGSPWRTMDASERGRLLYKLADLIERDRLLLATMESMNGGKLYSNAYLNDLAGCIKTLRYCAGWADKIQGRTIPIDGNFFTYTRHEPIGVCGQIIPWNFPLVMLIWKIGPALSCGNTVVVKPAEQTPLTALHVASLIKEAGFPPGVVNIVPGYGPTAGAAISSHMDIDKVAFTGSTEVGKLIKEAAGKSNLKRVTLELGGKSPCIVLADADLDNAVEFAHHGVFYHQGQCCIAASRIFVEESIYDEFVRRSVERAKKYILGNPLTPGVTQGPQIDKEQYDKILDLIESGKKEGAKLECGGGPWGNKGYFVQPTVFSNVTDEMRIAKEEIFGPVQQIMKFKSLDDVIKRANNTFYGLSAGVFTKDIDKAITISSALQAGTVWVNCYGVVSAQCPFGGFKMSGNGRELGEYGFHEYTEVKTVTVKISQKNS
# Target: Aldehyde dehydrogenase 1A1 (Homo sapiens) (UniProt P00352)
# Test: qHTS Assay for Inhibitors of Aldehyde Dehydrogenase 1 (ALDH1A1);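 as to activity, negative = inhibition: plate controls were no enzyme wells and a reference inhibitor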
# Conditions: Purified ALDH1A1, NADH fluorescence, propionaldehyde substrate; series mostly up to 75.3 µM; activity, negative = inhibition: at the top concentration
# Potency is read from the fitted curve at half-maximal effect.
SMILES,"activity, negative = inhibition",Potency
CC(=O)Nc1ccc([As](=O)(O)O)c(O)c1,inactive: 6.53%,–
CC(=O)Nc1ccc(Oc2c([N+](=O)[O-])cc([N+](=O)[O-])cc2[N+](=O)[O-])cc1,inactive: -1.71%,–
O=P1(Nc2nc3ccc(Cl)cc3s2)COc2ccccc2O1 (centres undefined),inactive: -3.31%,–
CCOc1ccc(C2=NCC(CBr)S2)cc1 (centres undefined),inactive: 5.58%,–
CC(C)(C)C(=O)NC(Sc1ccccc1)C(Cl)(Cl)Cl (centres undefined),inactive: -1.94%,–
COC(=O)c1cc2c(s1)N=C(c1ccccc1)N(C)P2(=O)N1CCOCC1 (centres undefined),inactive: -6.34%,–
CC(=O)NC(SC(=S)N(CC(C)C)CC(C)C)C(Cl)(Cl)Cl (centres undefined),inactive: -14.8%,–
Cc1ccc(OP(=O)(Nc2ccccn2)Oc2ccc(C)cc2)cc1,inactive: 5.75%,–
O=c1c2cc([N+](=O)[O-])ccc2[nH]c2c([N+](=O)[O-])cc([N+](=O)[O-])cc12,–,active: 0.631 µM
CCOC(=O)NC(Sc1ccccc1)C(Cl)(Cl)Cl (centres undefined),inactive: 3.09%,–
CCNC(=S)/N=C(\N)N[N+](=O)[O-],inactive: 14.2%,–
O=C(OC1CN2CCC1CC2)c1cccc(Cl)c1 (centres undefined),inactive: 13.6%,–
O=P(Nc1ccccn1)(c1ccc(Br)cc1)c1ccc(Br)cc1,inactive: 1.56%,–
[N-]=[N+]=Nc1ccc([As](=O)(O)O)cc1,inactive: 1.4% [at 13.5 µM],–
CN(C(=O)Cc1ccccc1)[C@H]1CC[C@@]2(CCCO2)C[C@@H]1N1CCCC1,inactive: 4.35%,–
O=P(Nc1nc2ccccc2s1)(c1ccccc1)c1ccccc1,inactive: -4.84%,–
CN1CCC[C@H](OC(=O)C(c2ccccc2)c2ccccc2)C1,inactive: 1.72% [at 13.5 µM],–
C[C@@H](O)COc1ccc([As](=O)(O)O)cc1N,inactive: -0.236% [at 13.5 µM],–
CC(C)C(=O)NC(Sc1ccccc1)C(Cl)(Cl)Cl (centres undefined),inactive: 8.17%,–
O=P(Nc1nccs1)(c1ccccc1)c1ccccc1,inactive: 7.05%,–
c1nnnn1CCn1cnnn1,inactive: 15.9%,–
CCN(/C(=N/P(=O)(N1CCOCC1)N1CCOCC1)N1CCOCC1)c1ccc(OC)cc1,inactive: 10.6%,–
Nc1ccc([As](=O)(O)c2ccc(N)cc2)cc1,inactive: 4.49%,–
O=C(CO)Nc1ccc([As](=O)(O)O)cc1,inactive: 10% [at 13.5 µM],–

SMILES,"activity, negative = inhibition",Potency
CC(=O)C1=CCCC2CCC1N2 (centres undefined),inactive: -16.7%,–
CC(C)=N/N=C(\N)N[N+](=O)[O-],inactive: -6.07%,–
CN(C)C(=O)OCCc1n(C)cc[n+]1C,inactive: 12.6%,–
CCc1nc2c(n1)c1c(non1O)c1c2no[n+]1[O-],inactive: -6.31%,–
O=[N+]([O-])c1cc([N+](=O)[O-])c(CCNc2ccccc2)c([N+](=O)[O-])c1,–,active: 11.2 µM
O=[N+]([O-])c1cccc2n[nH]nc12,inactive: 6.28%,–
CC(=O)N1C2C3N(C(C)=O)C1C1N(C(C)=O)C(C(N1C(C)=O)N3C(C)=O)N2C(C)=O,inactive: 10.5%,–
O=[N+]([O-])c1ncn(CCn2ncnc2[N+](=O)[O-])n1,inactive: 4.02%,–
O=C(O)CNc1ccc([As](=O)(O)O)cc1,inactive: 14.9%,–
O=C(Nc1cc([As](=O)(O)O)ccc1O)c1ccccc1,inactive: 0.943%,–
[N-]=[N+]=NCC(O)CN=[N+]=[N-] (centres undefined),inactive: -4.9% [at 13.5 µM],–
CCN(N=Nc1nonc1N)c1nonc1N,inactive: 2.98%,–
C(Cc1nn[nH]n1)c1nn[nH]n1,inactive: -3.85% [at 13.5 µM],–
CC(=O)Nc1ccc([As](=O)(O)O)cc1,inactive: 5.33%,–
O=C(O)c1ccccc1[As](=O)(O)O,inactive: 5.6%,–
CCOP(=O)(Nc1ccccc1)OCC,inactive: 12.7%,–
CC(C)CC(=O)NC(Sc1ccc(Cl)cc1)C(Cl)(Cl)Cl (centres undefined),inactive: 3.62%,–
NCC[C@@H](N)CSP(=O)(O)O,inactive: -0.604% [at 13.5 µM],–
Cc1ccc(N/C(=N/P(=O)(N2CCOCC2)N2CCOCC2)N2CCOCC2)cc1,inactive: 17%,–
CN1CCCC(OC(=O)C(c2ccccc2)c2ccccc2)C1 (centres undefined),inactive: -15.7%,–
Clc1ccc(Cl)c(NC2=NCC(CBr)S2)c1 (centres undefined),–,active: 10 µM
COc1ccccc1OP(=O)(Nc1ccc(C)cn1)Oc1ccccc1OC,inactive: 0.722%,–
O=[N+]([O-])c1ccc(C[As](=O)(O)O)cc1,inactive: 16.7% [at 13.5 µM],–
COc1ccc(N/C(=N/P(=O)(N2CCOCC2)N2CCOCC2)N2CCOCC2)cc1,inactive: 6.9%,–

SMILES,"activity, negative = inhibition",Potency
c1ccc(P(c2ccccc2)c2ccccc2)cc1,inactive: 14.8%,–
Cc1c2c(nc3ccccc13)SC(C(Cl)Cl)C2 (centres undefined),inactive: 7.23%,–
O=C(OC1CN2CCC1CC2)C12CC3CC(CC(C3)C1)C2 (centres undefined),inactive: -8.25%,–
Cc1cc(=O)[nH]c(N[N+](=O)[O-])n1,inactive: 8.21%,–
COc1ccc2nc(NP(=O)(c3ccccc3)c3ccccc3)sc2c1,inactive: 5.34%,–
NC(=O)Nc1cc([As](=O)(O)O)cc(I)c1O,inactive: 13.4% [at 13.5 µM],–
ClCCSc1nnc(-c2cccnc2)o1,inactive: -4.23%,–
[N-]=[N+]=NCC(N)=O,inactive: 3.09% [at 13.5 µM],–
CC(C)NC(=O)NP(=O)(Oc1ccccc1)Oc1ccccc1,inactive: 1.07%,–
CCN(CC)C(=S)SC(NC=O)C(Cl)(Cl)Cl (centres undefined),–,active: 31.6 µM
O=[N+]([O-])c1cc([N+](=O)[O-])c(-c2ccn[nH]2)s1,inactive: -10.7%,–
C[As](=O)(O)c1cccc(C(=O)O)c1,inactive: 1.89%,–
Cc1ccc(OP(=O)(Nc2ccc([N+](=O)[O-])cn2)Oc2ccc(C)cc2)cc1,inactive: 8.1%,–
Cc1ccc2nc3c(c(C)c2c1)CC(C(Cl)Cl)S3 (centres undefined),inactive: -3.61%,–
O=P(Nc1ccccn1)(c1cccc2ccccc12)c1cccc2ccccc12,inactive: 5.71%,–
Cc1cc(SC(NC=O)C(Cl)(Cl)Cl)ncn1 (centres undefined),–,active: 0.631 µM
Cc1cc(SC(NC(=O)c2ccccc2)C(Cl)(Cl)Cl)nc(C(C)C)n1 (centres undefined),–,active: 10 µM
O=C(COc1ccccc1)OC1CN2CCC1CC2 (centres undefined),inactive: 10.2%,–
O=C(O)[C@@H](O)c1ccc([As](=O)(O)O)cc1,inactive: 5.88% [at 13.5 µM],–
CC(C)/C=N\N=C(\N)N[N+](=O)[O-],inactive: 7.35%,–
O=[As](O)(c1ccccc1Br)c1ccccc1Br,inactive: -0.993%,–
O=P1(Nc2ccccn2)COc2ccccc2OC1,inactive: -4.26%,–
CN(CCCl)Cc1cc(Cl)c(NC2=NCCN2)c(Cl)c1,inactive: 12.1%,–
Clc1n[nH]nc1-c1nn[nH][15n]1,inactive: -8.11%,–

SMILES,"activity, negative = inhibition",Potency
CC(C)(C)C(=O)NC(Sc1ncccn1)C(Cl)(Cl)Cl (centres undefined),–,active: 20 µM
O=P1(Nc2ncccn2)COc2ccccc2OC1,inactive: 3.58%,–
Cc1ccc(OCC(=O)OC2CN3CCC2CC3)cc1 (centres undefined),inactive: 15.3%,–
Cc1nn(-c2ccccc2)c2c1P(=O)(N1CCOCC1)N(C)C(c1ccccc1)=N2 (centres undefined),–,active: 10 µM
CN(C)C1(CNC(=O)c2ccc(S(C)(=O)=O)cc2)CCCCC1,inactive: 2.98%,–
O=C(/C=C/c1ccccc1)OC1CN2CCC1CC2 (centres undefined),inactive: 9.24%,–
NC(=O)Nc1ccc([As](=O)(O)O)cc1,inactive: 5.4% [at 20.9 µM],–
O=[N+]([O-])CC(O)c1ccc([N+](=O)[O-])cc1 (centres undefined),–,active: 25.1 µM
CCOP1(=S)c2c(C)nn(CCC#N)c2N=C(c2ccc(F)cc2)N1C (centres undefined),–,active: 22.4 µM
CN(C(=O)Cc1ccccc1)[C@@H]1CC[C@]2(CCCO2)C[C@H]1N1CCCC1,inactive: -5.8%,–
O=[N+]([O-])c1ccc2c(c1)nnn2O,inactive: -0.33%,–
CCOP1(=S)c2c(C)nn(CCC#N)c2N=C(c2ccccc2F)N1C (centres undefined),inactive: 2.59%,–
O=P(Nc1nccs1)(Oc1ccccc1)Oc1ccccc1,inactive: 2.79%,–
O=P(Nc1nccs1)(c1ccccc1)c1nc2ccccc2s1 (centres undefined),–,active: 2.24 µM
CS(=O)(=O)c1cc([N+](=O)[O-])c2no[n+]([O-])c2c1,–,active: 7.51 µM
O=[As](O)(O)c1ccc([As](=O)(O)O)cc1,inactive: -8.38% [at 13.5 µM],–
NS(=O)(=O)Cc1ccc([As](=O)(O)O)cc1,inactive: 5.68% [at 13.5 µM],–
O=C(CC(=O)c1ccccc1)O[C@H]1CN2CCC1CC2,inactive: 1.14% [at 13.5 µM],–
COc1cc(C2NCCC3(OCCO3)C2(C)C)cc(OC)c1OC (centres undefined),inactive: 2.66%,–
CCOP(=O)(Nc1cccc2ccccc12)OCC,inactive: -10.6%,–
Cc1cccc(OCC(=O)OC2CN3CCC2CC3)c1 (centres undefined),inactive: 0.823%,–
O=[As](O)(c1cccc(O)c1)c1cccc(O)c1,inactive: 11.8%,–
